Values of other authors, collected in patent publication US12158464B2, “Methods for modeling disease tissue using three-dimensional tissue systems” (priority 2013, dated 2024).

Tested on: mammalian venules
Conditions: not told; cited from earlier work

Substance: FITC-Dextran
- permeability of mammalian venules in vivo: (0.15±0.05)×10^−6 cm s^−1
